Some results are limits rather than exact numbers.

One may read the IC50 as the concentration that gives 50% inhibition.

The test system of this test is KYSE-150 esophageal carcinoma cell line. In words: Cell proliferation assay, BrdU incorporation ELISA. Type of test: cell-based, human. To be noted: Homo sapiens; KYSE-150, BrdU incorporation after 168 hr compound incubation; read-out: Cellular IC50. A general note: Dividing cells build labelled thymidine or BrdU into new DNA.
Consider `O=C(O)c1ccncc1NC[C@H]1CCOc2cc(C3CC3)ccc21` [Example 87, 3-({[(4S)-7-cyclopropyl-3,4-dihydro-2H-chromen-4-yl]-methyl}amino) pyridine-4-carboxylic acid], for which the half-inhibitory concentration (IC50) is 1 to 10 µM.

Turning to `O=C(O)c1ccncc1NCC1CCCc2cc(OCCc3ccccc3)ccc21` (centres unmarked) [Example 89, 3-({[6-(2-phenylethoxy)-1,2,3,4-tetrahydronaphthalen-1-yl]methyl}amino)pyridine-4-carboxylic acid], the concentration for half-maximal inhibition (IC50) lay within 0.1 to 1 µM.

As to `O=C(O)c1ccncc1NCC1CCCc2cc(OCC(F)(F)F)ccc21` (centres unmarked) [Example 90, 3-({[6-(2,2,2-trifluoroethoxy)-1,2,3,4-tetrahydronaphthalen-1-yl]methyl}amino)pyridine-4-carboxylic acid], the 50% inhibitory concentration (IC50) lay in the range of 1 to 10 µM.

`O=C(O)c1ccncc1NCC1CCOc2cc(CCC3CC3)ccc21` (centres unmarked) [Example 91, 3-({[7-(2-cyclopropylethyl)-3,4-dihydro-2H-chromen-4-yl]-methyl}amino) pyridine-4-carboxylic acid]: the IC50 was 0.1 to 1 µM.

Take `O=C(O)c1ccncc1NC[C@H]1CCCc2cc(OCCC(F)(F)F)ccc21` [Example 99, 3-({[(1S)-6-(3,3,3-trifluoropropoxy)-1,2,3,4-tetrahydronaphthalen-1-yl]methyl}amino) pyridine-4-carboxylic acid]: the IC50 was in the range of 1 to 10 µM.

`COC(=O)c1ccncc1NCc1ccc(C#N)cc1` [Preparation 5A, methyl 3-[(4-cyanobenzyl)amino]pyridine-4-carboxylate]: the IC50 was more than 10 µM.

On to `COC(=O)c1ccncc1NCc1ccc(C(F)(F)F)cc1` [Preparation 8A, methyl 3-{[4-(trifluoromethyl)benzyl]amino}pyridine-4-carboxylate], for which the IC50 is more than 10 µM.

Take `COC(=O)c1ccncc1NCc1ccc(Cl)cc1` [Preparation 10A, methyl 3-[(4-chlorobenzyl)amino]pyridine-4-carboxylate]: the IC50 was more than 10 µM.

Consider `COC(=O)c1ccncc1NCc1ccc(Cl)c(Cl)c1` [Preparation 14A, methyl 3-[(3,4-dichlorobenzyl)amino]pyridine-4-carboxylate], for which the half-inhibitory concentration (IC50) was 1 to 10 µM.

Take `COC(=O)c1ccncc1NCc1ccc(Br)cc1` [Preparation 25A, methyl 3-[(4-bromobenzyl)amino]pyridine-4-carboxylate]: the half-inhibitory concentration (IC50) was more than 10 µM.

Take `N#Cc1ccc(Cl)cc1C1CC1` [Preparation 26A, 4-chloro-2-cyclopropyl-benzonitrile]: the IC50 fell in the range of 1 to 10 µM.

`Cc1cccc(C#N)c1C1CC1` [Preparation 30A, 2-cyclopropyl-3-methyl-benzonitrile]: the IC50 is more than 10 µM.

Consider `COC(=O)c1ccncc1NCc1cccc(C(F)(F)F)c1` [Preparation 32A, methyl 3-{[3-(trifluoromethyl)benzyl]amino}pyridine-4-carboxylate], for which the IC50 is more than 10 µM.

Consider `COC(=O)c1ccncc1NCC12CC3CC(CC(C3)C1)C2` [Preparation 42A, methyl 3-[(adamantan-1-ylmethyl)amino]pyridine-4-carboxylate], for which the IC50 is 1 to 10 µM.

For the origin of these results see patent publication US10179769B2, “Histone demethylase inhibitors” (CELGENE QUANTICEL RESEARCH, INC., priority 2012, dated 2019).
